As a reminder, the EC50 is the concentration that produces a half-maximal response. What is called IC50 is the concentration needed to halve the response being measured.

Protein sequences, listed by entry. Tags and fused reporters are not part of them. Residues count along the entry.
UniProt P56817, 46-501 limits assumed: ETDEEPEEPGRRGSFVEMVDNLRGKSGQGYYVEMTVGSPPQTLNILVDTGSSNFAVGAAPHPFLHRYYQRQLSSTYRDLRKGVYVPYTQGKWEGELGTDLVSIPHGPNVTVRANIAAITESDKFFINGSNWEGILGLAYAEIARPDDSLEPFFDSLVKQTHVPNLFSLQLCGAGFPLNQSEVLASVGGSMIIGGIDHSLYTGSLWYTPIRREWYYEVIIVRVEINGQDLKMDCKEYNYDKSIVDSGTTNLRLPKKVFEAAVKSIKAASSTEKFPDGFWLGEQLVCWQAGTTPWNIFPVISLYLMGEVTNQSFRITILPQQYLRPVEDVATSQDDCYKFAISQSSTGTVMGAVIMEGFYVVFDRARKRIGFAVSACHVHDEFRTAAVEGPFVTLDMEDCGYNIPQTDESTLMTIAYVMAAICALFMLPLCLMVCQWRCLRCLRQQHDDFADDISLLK
UniProt P02768, 25-609 limits assumed: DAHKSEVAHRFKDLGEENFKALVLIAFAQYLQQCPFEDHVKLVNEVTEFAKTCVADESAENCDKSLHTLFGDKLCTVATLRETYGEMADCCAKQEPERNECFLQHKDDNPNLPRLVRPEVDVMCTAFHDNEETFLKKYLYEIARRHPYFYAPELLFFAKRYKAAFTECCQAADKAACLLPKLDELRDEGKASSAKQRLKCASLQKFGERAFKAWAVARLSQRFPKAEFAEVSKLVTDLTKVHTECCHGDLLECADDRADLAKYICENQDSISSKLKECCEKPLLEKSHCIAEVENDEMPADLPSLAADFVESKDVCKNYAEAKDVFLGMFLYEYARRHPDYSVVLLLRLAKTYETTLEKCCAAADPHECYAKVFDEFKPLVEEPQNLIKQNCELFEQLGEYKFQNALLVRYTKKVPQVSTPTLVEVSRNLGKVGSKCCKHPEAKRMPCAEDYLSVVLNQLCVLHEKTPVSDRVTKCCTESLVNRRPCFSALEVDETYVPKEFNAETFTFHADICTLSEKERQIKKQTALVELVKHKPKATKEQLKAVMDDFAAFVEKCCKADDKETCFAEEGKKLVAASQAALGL

Like-named read-outs stand apart in the source and are kept apart here.

A short description of one series: Kinetic solubility assay. Particulars: PBS pH 7.4, 37 °C, 90 min; tested form: HCl.
In a further series the test system is sAPPβ levels in brain. As to the kind of experiment: PD of FAH65E(-) in ApoE4-TR:5xFAD mice (brain sAPPβ). Particulars: 2 h after last oral dose of 30 mg/kg, in words, tested form: HCl.
A short description of series [1]: Brain tissue binding assay. Particulars: brain homogenate, 2 µM compound; tested form: HCl.
Series [2] relates to HEK293T cells stably expressing full-length APP with N-terminal GFP. Kind of series: HEK-APP-GFP cell assay. The following applies: 1 μM, 48 hours, tested form: HCl.
Series [3] concerns CHO-7W cells expressing wildtype human APP. As to the kind of experiment: sAPPβ and Aβ1-42 production in CHO-7W cells (AlphaLISA).
A further series has as its target BACE1 (Homo sapiens, UniProt P56817). Kind of series: P5-P5′ BACE1 inhibition assay. The class given is biochemical. Particulars: tested form: HCl.
A short description of series [4]: PK of FAH65E(-) in ApoE4-TR:5xFAD mice. The following applies: tested form: HCl.
Series [5] addresses human serum albumin (HSA) (Homo sapiens, UniProt P02768). Kind of series: Human serum albumin (HSA) binding assay. The following applies: tested form: HCl.
Series [6] deals with BACE1 cleavage of MBP-APPC125 substrate (Homo sapiens, UniProt P56817). Kind of series: MBP-APPC125 BACE1 cleavage assay. The class given is biochemical. Particulars: in words, tested form: HCl.
A further series in a line: Plasma stability assay. Particulars: human plasma, 37 °C, 180 min; tested form: HCl.
Where [7] appears, read: dose-response, tested form: HCl.

Consider `Cc1cc([C@]2(c3cccc(-c4cncnc4)c3)N=C(N)N(C)C2=O)ccc1OC(F)F`, for which, in “Kinetic solubility assay”, the Kinetic solubility worked out at 79 µM. In addition, the “sAPPβ levels in brain” value with sAPPβ levels in brain is “decreased”. In addition, in series [1], the “Brain tissue binding, funbound” value turned out to be 5.4%. Further, the “GFP signal intensity vs. DMSO” value in [2] is “significantly greater”. In series [3] (setting [7]), the “concentrations giving reduction in Aβ1-42” value is no less than 25 nM. Further, in [3] (setting [7]), the “concentrations giving reduction in sAPPβ” value was no less than 5 nM. The EC50 in series [3] (read-out: EC50 for sAPPβ reduction, tested form: HCl) is 25 nM; in series [3] (read-out: EC50 for sAPPβ reduction, tested form: HCl, listed as FAH65-E(-)), 25 nM. The half-maximal inhibitory concentration (IC50) is 5 nM at BACE1 (read-out: BACE1 IC50 (P5-P5′ assay; BACE1-APP), cell-free) and less than 10 nM on BACE1 (read-out: In vitro IC50, Table S3). For the same molecule, the “Unbound brain concentration at Cmax” value in series [4] (30 mkd oral, from brain Fu) is 9.6 nM. For the same molecule, the “time of brain Cmax” value in series [4] (ApoE4-TR:5xFAD mice, oral 30 mg/kg, after last dose) came out at 1 h. In addition, the “Plasma (HSA) binding, funbound” value in series [5] is given as 0.49%. For the same molecule, the entries for the “inhibition of BACE1 cleavage of MBP-APPC125” value in [6] and in series [6] (listed as FAH65 E(-)) were “significantly inhibits” and “active”, respectively. The “Plasma stability t1/2” value in the series “Plasma stability assay” was greater than 3 h.

(Values after paper PMC12491701, “Discovery of an APP-selective BACE1 inhibitor for Alzheimer's disease” (Neurotherapeutics, 2025).)
